Assay results from PMC7486785 (Proceedings of the National Academy of Sciences of the …, 2020).

Assays:
[1] = target: Flex^R101D lysozyme (UniProt P00698); assay: bio-layer interferometry; details: read off a plot
[2] = target: Duck egg lysozyme (DEL); assay: bio-layer interferometry; details: parent: est. 2.5e7 M-1; read off a plot

| Ka ([1]; parent: est. 1.5e7 M-1) [M⁻¹] | Ka ([1]; parent: est. 1.7e7) [M⁻¹] | Ka [2] [M⁻¹] | Substance |
| --- | --- | --- | --- |
| 1.4e+07 | 1.4e+07 |  | Hy10 Fab S31N |
| 6.3e+06 | 5.6e+06 |  | Hy10 Fab L4F |
| 3.7e+06 |  |  | Hy10 Fab S56R |
|  |  | 1e+08 | Hy10 Fab Y53F; Y58F |
|  |  | 9e+07 | Hy10 Fab Y58F |
|  |  | 3.6e+08 | Hy10 Fab S52T; Y58F |
|  | 1.8e+07 |  | Hy10 Fab Y33H |
|  |  | < 100000 | Hy10 Fab S52R; Y53F |
|  |  | 1.4e+08 | Hy10 Fab I29F; S52T |
| 3.5e+07 | 3.4e+07 |  | Hy10 Fab S56Y |
|  |  | 6.8e+09 | Hy10 Fab I29F; S52T; Y53F; Y58F |
|  | < 100000 | < 100000 | Hy10 Fab S52R |
